According to US20140011799A1 (Bristol-Myers Squibb Company, priority 2012, published 2014):

Target: T1, Endothelial lipase (EL) (Homo sapiens, UniProt Q9Y5X9)
T1 construct: HT-1080 cells that were transformed using RAGE technology (Athersys) to overexpress endogenous EL; endogenous in cells; conditioned medium used
T1 sequence (Q9Y5X9 21-500): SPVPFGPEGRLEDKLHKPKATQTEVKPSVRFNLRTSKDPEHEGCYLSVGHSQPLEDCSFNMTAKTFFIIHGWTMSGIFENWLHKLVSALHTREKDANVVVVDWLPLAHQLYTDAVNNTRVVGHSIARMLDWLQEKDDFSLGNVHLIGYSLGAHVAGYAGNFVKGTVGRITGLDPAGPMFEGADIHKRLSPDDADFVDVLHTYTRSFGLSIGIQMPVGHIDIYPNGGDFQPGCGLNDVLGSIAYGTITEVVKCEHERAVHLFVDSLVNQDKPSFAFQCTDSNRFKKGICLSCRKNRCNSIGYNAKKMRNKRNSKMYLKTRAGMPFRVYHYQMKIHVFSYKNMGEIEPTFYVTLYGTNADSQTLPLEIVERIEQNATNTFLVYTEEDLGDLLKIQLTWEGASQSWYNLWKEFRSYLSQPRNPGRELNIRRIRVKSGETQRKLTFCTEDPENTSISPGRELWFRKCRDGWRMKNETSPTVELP
Assay: Endothelial lipase (EL) enzymatic assay, fluorescent substrate A10070 in DMPG vesicles
Type: biochemical
Details: EL from conditioned media of HT-1080 cells; compound preincubated 30 min at 37° C
Protocol: Endothelial lipase (EL) and hepatic lipase (HL) activities were measured using a fluorescent substrate, A10070, (Invitrogen, CA) doped into an artificial vesicle containing DMPG (Avanti Polar Lipids) as the excipient. Vesicles were prepared by combining 571 μL of 29 mM DMPG in a 1:1 mixture of MeOH and CHCl3 with 2000 μL of 1 mM A10070 in a 1:1 mixture of MeOH and CHCl3. The mixture was dried under nitrogen in multiple vials then resuspended in 20 mL total volume of 50 mM HEPES pH 8.0 buffer containing 50 mM NaCl and 0.2 mM EDTA. The sample was allowed to sit at room temperature for 15 min and then was sonicated 3×4 mins on ice with a Branson Sonicator using duty cycle 1. This preparation provides vesicles with a mole fraction of 0.11 for the FRET substrate.
The enzymatic assay was measured using 384-well white Optiplates. Each well contained 20 μL of assay buffer (50 mM HEPES pH 8.0, 50 mM NaCl and 1 mM CaCl2) and 0.25 μL of a DMSO solution containing a compound of interest. EL or HL (10 μL) was added and allowed to incubate with the compound for 30 min at 37° C. […] The reaction rates were measured on a Gemini plate reader with an excitation wavelength of 490 nm and an emission wavelength of 530 nm. Readings were taken over a period of 60 minutes, and the slope between 300 and 900 secs of the readout was used to calculate the rate of the reaction.

Row | IC50 [nM] | Compound
1 | > 25000 | CC(c1nnc(CNS(N)(=O)=O)o1)(c1nc2ccc(-c3ccccc3)cc2s1)S(=O)(=O)Cc1ccccc1 (single isomer, unassigned) [Reference 2, Isomer A, N-((5-(1-(Benzylsulfonyl)-1-(6-phenyl-1,3-benzothiazol-2-yl)ethyl)-1,3,4-oxadiazol-2-yl)methyl)sulfamide, reference compound]
2 | 713 | CC(c1nnc(CNS(N)(=O)=O)o1)(c1nc2ccc(-c3ccccc3)cc2s1)S(=O)(=O)Cc1ccccc1 (single isomer, unassigned) [Reference 2, Isomer B, N-((5-(1-(Benzylsulfonyl)-1-(6-phenyl-1,3-benzothiazol-2-yl)ethyl)-1,3,4-oxadiazol-2-yl)methyl)sulfamide, reference compound]
